From patent US20110172126A1, “LIBRARIES OF PEPTIDE CONJUGATES AND METHODS FOR MAKING THEM” (XENOME LTD, priority 2008, published 2011)

Amino acid sequences for entries named in this document (tags omitted).
UniProt P23975, whole entry: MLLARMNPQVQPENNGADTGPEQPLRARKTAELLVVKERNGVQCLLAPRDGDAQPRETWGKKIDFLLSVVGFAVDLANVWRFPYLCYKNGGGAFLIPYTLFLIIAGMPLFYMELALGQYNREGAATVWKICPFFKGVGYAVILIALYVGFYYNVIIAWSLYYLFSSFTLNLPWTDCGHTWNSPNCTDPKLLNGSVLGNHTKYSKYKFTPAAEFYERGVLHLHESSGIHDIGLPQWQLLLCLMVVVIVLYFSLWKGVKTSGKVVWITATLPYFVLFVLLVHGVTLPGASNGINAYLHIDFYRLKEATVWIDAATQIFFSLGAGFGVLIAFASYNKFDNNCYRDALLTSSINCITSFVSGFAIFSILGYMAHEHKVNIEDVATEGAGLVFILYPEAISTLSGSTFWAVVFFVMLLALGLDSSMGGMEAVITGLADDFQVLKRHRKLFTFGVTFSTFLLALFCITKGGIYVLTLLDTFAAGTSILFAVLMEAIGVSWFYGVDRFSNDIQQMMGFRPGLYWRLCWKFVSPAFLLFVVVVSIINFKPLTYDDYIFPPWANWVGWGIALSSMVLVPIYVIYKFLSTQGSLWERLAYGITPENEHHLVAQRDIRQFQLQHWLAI

Target: T1, human norepinephrine transporter (hNET) (Homo sapiens, UniProt P23975)
T1 construct: purchased Perkin Elmer Life Sciences RBHNETM400UA
Test: biochemical
Type: binding

| SMILES | pIC50 |
| --- | --- |
| CC(C)C[C@@H]1NC(=O)[C@@H]2C[C@@H](CN2C(=O)CCCN)NC(=O)[C@H](Cc2ccc(O)cc2)NC(=O)[C@@H](N)CSSC[C@@H](C(N)=O)NC1=O [compound 2] | 4.64 |
| CC(C)C[C@@H]1NC(=O)[C@@H]2C[C@H](NC(=O)CCCN)CN2C(=O)[C@H](Cc2ccc(O)cc2)NC(=O)[C@@H](N)CSSC[C@@H](C(N)=O)NC1=O [compound 3] | 4.68 |

pIC50: −log10 of the molar value.
